# scFv variants of Ab-95 (light chain) against a SARS-CoV-2 spike peptide

Target: peptide PDVDLGDISGINAS, taken from heptad repeat 2 (HR2) of SARS-CoV-2 spike.

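Phage display of a naive human antibody library on the peptide gave the parent. Variants in AAYL52 differ from the parent at up to three CDR positions; double and triple changes were sampled at random. The scFvs were displayed on barcoded MATa yeast, the peptide on MATalpha yeast. Binding brings cells together so that they mate, and sequencing counts the barcode pairs among the diploids. Read counts were normalised to the haploid input and turned into Kd by a linear fit to BCL2-family pairs of known affinity, for each replicate. There are three technical replicates.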

Each scFv is VH, the linker GGGGSGGGGSGGGGS, VL, as in the parent Ab-95, and differs from it in the CDRs of the light chain only.
VH: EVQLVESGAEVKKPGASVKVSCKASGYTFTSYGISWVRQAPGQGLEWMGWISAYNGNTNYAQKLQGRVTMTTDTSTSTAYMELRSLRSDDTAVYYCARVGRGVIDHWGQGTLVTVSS
VL: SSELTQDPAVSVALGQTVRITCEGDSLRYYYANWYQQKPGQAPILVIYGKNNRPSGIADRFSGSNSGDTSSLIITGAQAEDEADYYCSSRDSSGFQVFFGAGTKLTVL

Variants are written as CDR1, CDR2 and CDR3 of the light chain (limits as in the source). Parent: EGDSLRYYYAN, GKNNRPS, SSRDSSGFQVF.
Numbers give log10(Kd / nM), so 0 is 1 nM and 3 is 1 µM. Smaller is tighter.
Replicates are averaged; those with no signal do not enter the mean.
"nd" marks a missing value. The strain was present, yet no cells mated with the target were sequenced in that replicate, which points to weak or no binding.

CDR-L1 | CDR-L2 | CDR-L3 | replicates, log10 nM | mean, log10 nM | signal with controls
EGTSLRYYYAN | GKNNQPS | SSRRSSGFQVF | nd 4.09 3.68 | 3.88 | 2/9 (3.58)
EGDFLRYYYAN | GANNRES | SSRDSSGFQVF | nd 3.86 2.76 | 3.31 | 2/9 (3.80)
EGDSLRYYYAL | GKNNRPA | SSRDSSGFVVF | 3.44 4.16 nd | 3.80 | 3/9 (3.91)
EGDSLRYYYAN | GKNNRPS | CTRDISGFQVF | 2.87 3.08 3.29 | 3.08 | 4/9 (4.04)
EGDSLRYYYAN | VKNNRPS | SSHDSSGFQLF | 4.85 nd nd | 4.85 | 2/9 (3.50)
EGDSLRYYYAN | YKNNRAS | SSRDSSGFQVF | nd 5.32 nd | 5.32 | 0/9
RGDCLRYYYAN | GKKNRPS | SSRDSSGFQVF | nd 3.64 nd | 3.64 | 3/9 (4.63)
EGDSTRYYTAN | GKNNRPS | SSRDSSGFQVD | nd nd 3.77 | 3.77 | 0/9
EGDSLRYYYAN | GKNNRPS | SSRRSFIFQVF | 3.29 5.00 nd | 4.15 | 0/9
EGDSLRYYNAW | WKNNRPS | SSRDSSGFQVF | nd nd 4.33 | 4.33 | 2/9 (2.89)
EGDSGRYYAAN | GKNNRPS | STRDSSGFQVF | 2.57 2.50 2.83 | 2.63 | 1/9 (3.11)
EGDSLRKYYAN | GKNNRPS | SSRDSSGGSVF | nd nd nd | nd | 3/9 (3.30)
EGDCPRYGYAN | GKNNRPS | SSRDSSGFQVF | 3.07 5.28 2.72 | 3.69 | 2/9 (3.88)
EGDSIRYYYAN | GKNNRMS | SSRDSSGFQVF | 4.55 nd 3.58 | 4.07 | 2/9 (2.58)
EGDELLYYYAN | GKNNRPS | SSRDHSGFQVF | 4.74 3.76 3.56 | 4.02 | 2/9 (3.18)
EGDNLRYYYAN | GKNNRPH | SSRDSSGGQVF | nd 3.05 nd | 3.05 | 2/9 (3.40)
EWDSLRYYYEN | GKNNRPS | SSCDSSGFQVF | nd nd nd | nd | 2/9 (4.15)
EGDSLRYHYAN | GKNNRPS | SSRDSSEFEVF | 2.09 1.91 1.89 | 1.97 | 5/9 (4.09)
EGDSTRYKYAN | GKNNYPS | SSRDSSGFQVF | nd nd 3.13 | 3.13 | 3/9 (4.28)
EGDSLRYAYAN | GKNNRCS | SSRDSSGFQVQ | 3.04 2.85 nd | 2.94 | 2/9 (2.62)
EGDCLRYYPYN | GKNNRPS | SSRDSSGFQVF | 3.79 3.46 3.46 | 3.57 | 2/9 (3.71)
EGDSLRYYYVN | GKNNRCS | WSRDSSGFQVF | 5.14 4.68 4.46 | 4.76 | 4/9 (4.30)
EGDSLRYYYAE | GKNNRPS | SSRASSGWQVF | 4.84 nd 4.85 | 4.85 | 4/9 (4.32)
EGDSLRYYYAN | GKNNPPS | SSRDSQGFQVF | nd nd nd | nd | 6/9 (3.84)
EYDSLRYYYAN | GKNNRPS | ISRDSSGFHVF | nd 5.64 nd | 5.64 | 3/9 (3.98)
EGDVRRYYYAN | GKNNRPS | SSRDSSGGQVF | 3.25 3.77 nd | 3.51 | 5/9 (3.95)
WGDSLRYYYAN | GKNNRPS | SSRRSSGFQVY | 5.16 nd nd | 5.16 | 1/9 (4.69)
EGDSLRYYYAN | PKYYRPS | SSRDSSGFQVF | 5.00 nd 4.03 | 4.52 | 4/9 (3.49)
EGDSLRYYYAN | GKNNRPS | SSRDSHGFQVF | 2.44 2.35 2.25 | 2.35 | 6/9 (4.24)
EGDSLRYYYAN | GKNNRPS | DPRDSSVFQVF | 1.95 1.93 1.72 | 1.86 | 2/9 (4.01)
EGDSLRYMYAN | GKNRRPS | SSRDSSGFQVE | 2.58 2.41 2.03 | 2.34 | 3/9 (3.96)
EGDELRYYKAN | GKNNRPS | SSRDSSGFQWF | nd nd nd | nd | 1/9 (3.43)
EGDSLRYYYAN | GKNNRPN | SSRQSSGFQSF | nd nd nd | nd | 1/9 (4.02)
LGFSLRYYYAN | GKNNRPS | SSRDSSGFQVE | 5.48 4.64 nd | 5.06 | 5/9 (4.55)
EGDSLRYYYAP | GKNNRPP | SSRDSSGFQVF | 3.32 nd 2.55 | 2.94 | 3/9 (3.55)
EGSSLRYYYAN | GKNNRPS | SHRDSSYFQVF | 3.12 nd 2.69 | 2.90 | 3/9 (3.80)
EGDSLRHYYAF | GKDNRPS | SSRDSSGFQVF | nd nd nd | nd | 1/9 (4.14)
EGDSLRYYFAN | GKGNRPS | SSRDSSGFHVF | 2.51 2.79 1.85 | 2.38 | 3/9 (3.88)
EFDSLRYYYAN | LKNNRPS | SSRDSSAFQVF | 4.92 nd 3.95 | 4.44 | 2/9 (3.65)
EGDSLRMYYAN | GKNNTPS | SSRDSSGPQVF | 3.59 4.12 4.10 | 3.94 | 5/9 (4.11)
PGDSLRYYYAN | GKNNRPS | SSRDSSGFQVF | 3.17 nd nd | 3.17 | 3/9 (3.82)
EGNSLRYYYAN | GKNNCPS | SSLDSSGFQVF | nd nd nd | nd | 1/9 (4.41)
EGDSLRYYHAN | GKNNRPS | SSRDSSGFQVF | 1.87 1.73 1.45 | 1.68 | 0/9
EGDSLAYYYAN | GKNNRPS | SSRDSSGWQVW | 2.23 2.54 2.50 | 2.42 | 0/9
EGDSLRYYYAN | GKNNRPV | GSLDSSGFQVF | 4.16 nd nd | 4.16 | 2/9 (3.47)

From the list, the first 5 with no signal in any replicate:

CDR-L1 | CDR-L2 | CDR-L3 | replicates, log10 nM | mean, log10 nM | signal with controls
EGDSLRKYYAN | GKNNRPS | SSRDSSGGSVF | nd nd nd | nd | 3/9 (3.30)
EWDSLRYYYEN | GKNNRPS | SSCDSSGFQVF | nd nd nd | nd | 2/9 (4.15)
EGDSLRYYYAN | GKNNPPS | SSRDSQGFQVF | nd nd nd | nd | 6/9 (3.84)
EGDELRYYKAN | GKNNRPS | SSRDSSGFQWF | nd nd nd | nd | 1/9 (3.43)
EGDSLRYYYAN | GKNNRPN | SSRQSSGFQSF | nd nd nd | nd | 1/9 (4.02)

For reference, the parent read 2.31 as the reference entry and 2.25 as a member of this library.
As a blank, each scFv also met three strains without target: over library AAYL52, 28% of these pairings were detected, typically at 3.91 and seldom below 2.90. The control count says in how many pairings with the empty strains this scFv gave a signal, with their mean in brackets.

From the AlphaSeq antibody data of Engelhart et al. 2022 (doi:10.1038/s41597-022-01779-4), copy in the FLAb collection.